Six substances from patent publication US9133260B2 (priority 2005, dated 2015) can be followed below.

By UniProt entry, the sequences of proteins in these tests, tags left out. Residues count along the entry.
UniProt O60894, 27-148: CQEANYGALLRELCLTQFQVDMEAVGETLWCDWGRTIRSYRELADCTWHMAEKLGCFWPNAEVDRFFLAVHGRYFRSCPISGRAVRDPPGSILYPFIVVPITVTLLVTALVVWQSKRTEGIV
UniProt Q16602, 23-461: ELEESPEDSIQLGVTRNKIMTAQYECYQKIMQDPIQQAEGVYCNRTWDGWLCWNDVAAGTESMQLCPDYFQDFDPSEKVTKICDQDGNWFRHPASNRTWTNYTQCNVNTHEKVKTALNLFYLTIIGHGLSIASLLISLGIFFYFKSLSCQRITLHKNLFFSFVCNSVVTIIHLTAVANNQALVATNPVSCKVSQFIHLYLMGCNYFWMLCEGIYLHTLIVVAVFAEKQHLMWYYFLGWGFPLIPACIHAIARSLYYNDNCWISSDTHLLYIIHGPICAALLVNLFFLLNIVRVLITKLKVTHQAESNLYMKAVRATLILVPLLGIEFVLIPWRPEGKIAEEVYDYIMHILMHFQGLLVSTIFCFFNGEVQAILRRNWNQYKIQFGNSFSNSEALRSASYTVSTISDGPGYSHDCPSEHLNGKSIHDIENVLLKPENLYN

Read-outs that look alike come from different tables or passages of the source.

In series [1] the target is T1, GIP Receptor (Homo sapiens, UniProt P48546).
T1 sequence (P48546 22-466): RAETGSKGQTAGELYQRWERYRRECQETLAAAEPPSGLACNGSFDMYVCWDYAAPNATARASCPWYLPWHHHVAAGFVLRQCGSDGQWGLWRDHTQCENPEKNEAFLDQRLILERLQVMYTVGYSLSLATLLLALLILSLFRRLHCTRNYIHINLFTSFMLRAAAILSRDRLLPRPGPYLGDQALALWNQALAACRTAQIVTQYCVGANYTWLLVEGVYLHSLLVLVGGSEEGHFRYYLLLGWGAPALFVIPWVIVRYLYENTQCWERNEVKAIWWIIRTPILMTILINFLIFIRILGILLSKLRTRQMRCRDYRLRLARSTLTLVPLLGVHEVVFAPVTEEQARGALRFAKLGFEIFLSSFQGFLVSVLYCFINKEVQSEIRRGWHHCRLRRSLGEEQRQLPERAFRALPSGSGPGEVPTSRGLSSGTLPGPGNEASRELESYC
Nature of the series: Cyclase (GIP Receptor activation). It counts as biochemical. The settings on record: unit inferred.

Series [2] has as its target T1, GIP Receptor. It counts as binding.
Series [3] is described as follows: Protease resistance in RINm5F cell membrane extracts. It counts as in vitro ADME. Particulars: 37° C., 6 hr, LC-MS.
The nature of series [4]: Stability in human plasma. It counts as in vitro ADME.
The next series concerns the target T2, CGRP receptors (Homo sapiens, UniProt O60894+Q16602).
T2 construct: membranes prepared from SK-N-MC cells, known to express CGRP receptors; endogenous in cells; host or cells: SK-N-MC cell membranes
Nature of the series: CGRP receptor binding assay (CGRP RBA), SK-N-MC cell membranes. Particulars: table of GIP/amylin-sCT hybrids; unit inferred.

The target in another series is T3, GLP-1 receptor (Rattus norvegicus, UniProt P32301).
T3 construct: the receptor source is RINm5F cell membranes; endogenous in cells; host or cells: RINm5F cell membranes
T3 sequence (P32301 22-463): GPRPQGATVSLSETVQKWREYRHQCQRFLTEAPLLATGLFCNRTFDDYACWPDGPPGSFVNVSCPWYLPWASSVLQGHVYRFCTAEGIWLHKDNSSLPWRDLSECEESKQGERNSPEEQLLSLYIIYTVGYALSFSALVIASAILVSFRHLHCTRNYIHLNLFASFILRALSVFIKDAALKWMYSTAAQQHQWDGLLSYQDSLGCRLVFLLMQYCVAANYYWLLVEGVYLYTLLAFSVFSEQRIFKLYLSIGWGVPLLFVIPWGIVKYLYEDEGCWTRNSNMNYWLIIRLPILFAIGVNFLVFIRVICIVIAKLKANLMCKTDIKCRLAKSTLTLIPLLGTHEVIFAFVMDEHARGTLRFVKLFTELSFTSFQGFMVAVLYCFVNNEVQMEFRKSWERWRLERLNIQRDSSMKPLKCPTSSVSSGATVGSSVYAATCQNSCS
It counts as binding. Particulars: read-out: GLP RBA.

The target in the next series is T4, amylin receptors (Rattus norvegicus, UniProt P32214).
T4 sequence (P32214 25-516): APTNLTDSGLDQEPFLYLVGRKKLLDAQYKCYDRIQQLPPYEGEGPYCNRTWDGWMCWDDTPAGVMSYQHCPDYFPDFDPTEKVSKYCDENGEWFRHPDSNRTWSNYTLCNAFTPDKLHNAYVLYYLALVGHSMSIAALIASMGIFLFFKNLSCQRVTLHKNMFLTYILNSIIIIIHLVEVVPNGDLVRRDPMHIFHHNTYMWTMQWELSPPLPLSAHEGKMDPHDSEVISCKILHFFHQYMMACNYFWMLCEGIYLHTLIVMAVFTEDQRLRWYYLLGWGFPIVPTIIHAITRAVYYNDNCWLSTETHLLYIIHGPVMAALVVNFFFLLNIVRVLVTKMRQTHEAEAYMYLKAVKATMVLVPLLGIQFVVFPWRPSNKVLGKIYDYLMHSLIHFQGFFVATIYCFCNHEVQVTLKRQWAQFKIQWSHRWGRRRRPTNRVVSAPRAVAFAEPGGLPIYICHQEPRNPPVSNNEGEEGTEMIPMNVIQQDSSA
T4 sequence (Q9JJ74 27-148 partner): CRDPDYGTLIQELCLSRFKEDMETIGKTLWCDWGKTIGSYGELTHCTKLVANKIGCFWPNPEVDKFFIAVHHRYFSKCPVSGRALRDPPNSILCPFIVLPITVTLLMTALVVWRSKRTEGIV
The settings on record: read-out: AMY RBA; table of GIP/amylin-sCT hybrids; unit inferred.

The target in the next series is relevant receptors. Put plainly: Cyclase, table of GIP/amylin-sCT hybrids. It is filed as biochemical. Particulars: receptor and unit inferred.

In general, EC50 refers to the concentration giving half of the maximal effect. “YaEGTFISDYSIAMDG(Oct)IHQQDFVNWLLAQKPSSGAPPPS-NH2 [Compound 0601GIP4194]” had an EC50 on GIP Receptor [1] of 0.933 µM.
For the substance “YAEGTFISDYSIAMDKIHQQDFVNWLLAQKPSSGAPPPS [Compound 1]”, the IC50 on GIP Receptor [2] (read-out: GIP RBA) is 0.0038 µM.
Regarding “YaEGTFISDYSIAMDKIHQQDFVNWLLAQKPSSGAPPPS-NH2 [Compound 0601GIP3794]”, the “stability against RINm5F cell membrane extracts” value in series [3] was “more stable”. In series [4], the “plasma stability, comparison in words” value is “more stable than exendin-4”.
For “YaEGTFISDYSIAMDKIHQQDFVNWLLAQKPKKIRYS-NH2 [Compound 0601GIP4233]”, the IC50 at GIP Receptor [2] (list, read-out: GIP Receptor binding activity) worked out at 0.0001 µM.
In turn, “YaEGTFISDYSIAMDKIHQQDFVNWLLAQK-bAlabAla-PSSGAPPPS-NH2 [Compound 0601GIP4179]” had a 50% effective concentration (EC50) at GIP Receptor [1] of 0.056 µM. That is a double-digit nanomolar value.
For “HAEGTFTSDVSSYLEGQAALEFIAWLVKGR [Compound 4]”, the IC50 at CGRP receptors was 0.11 µM; on GIP Receptor [2] (read-out: GIP RBA), 0.00013 µM; at GLP-1 receptor, 0.664 µM; at amylin receptors, 0.0003 µM. On relevant receptors, this substance yielded an EC50 of 0.215 µM.
